Assay results as given in PubChem BioAssay AID449 (The Scripps Research Institute Molecular Screening Center, 2006).
The entries are a selection whose mix differs from that of the whole data set. Calls of active or inactive are those of the source.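 The calls were made as follows: active = activation above a cutoff set at the mean activation of all tested compounds plus 3 SD (cut at about 54% in these data); inactive = the rest, inconclusive results apart.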

The chains behind the UniProt entries cited, without tags or fusion partners.
UniProt P21453, whole entry: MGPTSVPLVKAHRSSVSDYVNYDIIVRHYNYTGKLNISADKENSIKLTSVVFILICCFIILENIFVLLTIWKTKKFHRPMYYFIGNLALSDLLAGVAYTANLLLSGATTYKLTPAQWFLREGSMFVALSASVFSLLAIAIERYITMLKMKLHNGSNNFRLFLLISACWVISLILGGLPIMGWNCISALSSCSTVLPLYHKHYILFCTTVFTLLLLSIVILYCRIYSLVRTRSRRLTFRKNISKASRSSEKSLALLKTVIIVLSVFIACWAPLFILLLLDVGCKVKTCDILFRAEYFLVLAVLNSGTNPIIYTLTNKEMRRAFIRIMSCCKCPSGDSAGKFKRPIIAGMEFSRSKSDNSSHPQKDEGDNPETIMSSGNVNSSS

target: Sphingosine 1-phosphate receptor 1 (Homo sapiens) (UniProt P21453); experiment: activation or potentiation of human S1P1 signaling – cell-based, primary and confirmation screens, CRE-bla reporter, primary screen (AID 449); settings: S1P1 CRE-bla cells, forskolin, beta-lactamase FRET, potentiator mode; at 9.5 µM; hits give high values; 100% = saturating reference agonist, 0% = basal; S1P1 agonist co-added at EC20, 2 nM;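 also: forskolin at 4 µM as EC80 and the EC20 agonist is SEW2871; 100% = SEW2871 at its EC100 plus forskolin at EC80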

SMILES | activation
CP(=O)(Nc1ccccc1F)Oc1ccccc1 (stereo not given) | inactive: -6.7%
CN(C)CCOC(=O)C(O)(c1ccccc1)C1CCCCC1 (stereo not given) | inactive: 6.5%
Cc1ccccc1NP(C)(=O)Nc1ccccc1C | inactive: 8.2%
CCOP(C)(=S)SCC(=O)NC(C)(CC)C(=O)O (stereo not given) | inactive: 2.1%
COc1ccccc1OP(C)(=O)Nc1c(C)n(C)n(-c2ccccc2)c1=O (stereo not given) | inactive: 12.5%
CP(=O)(Oc1ccccc1)N1CCOC1=O (stereo not given) | inactive: -0.8%
CCN(CC)CC(O)COC(=O)C(O)(c1ccccc1)C1CCCCC1 (stereo not given) | inactive: -15.9%
Cc1nc2ccc3ccccc3c2o1.O=[N+]([O-])c1cc([N+](=O)[O-])c(O)c([N+](=O)[O-])c1 | inactive: -3.8%
COc1ccccc1OP(C)(=O)Nc1ccc(C)c(C)c1 (stereo not given) | inactive: 19.6%
CP(=O)(Nc1ccccn1)Oc1ccccc1 (stereo not given) | inactive: -18.5%
Cc1ccc(NP(C)(=O)Oc2ccccc2)c(C)c1 (stereo not given) | inactive: 2.9%
COc1ccccc1OP(C)(=O)Nc1ccc(C)cc1 (stereo not given) | inactive: -9.9%
CP(=S)(Nn1cnnc1)Oc1ccccc1 (stereo not given) | inactive: -1.1%
CCOP(C)(=S)SCC(=O)NC(C)C(=O)O (stereo not given) | inactive: 9.8%
Cc1nc2ccc3ccccc3c2s1.O=[N+]([O-])c1cc([N+](=O)[O-])c(O)c([N+](=O)[O-])c1 | inactive: -12.8%
